Laboratory results taken from BindingDB's records for 23134120 (University of Innsbruck, 2012).

Chains of the proteins cited; added tags and fusions are not shown.
UniProt P41143, whole entry, looked up: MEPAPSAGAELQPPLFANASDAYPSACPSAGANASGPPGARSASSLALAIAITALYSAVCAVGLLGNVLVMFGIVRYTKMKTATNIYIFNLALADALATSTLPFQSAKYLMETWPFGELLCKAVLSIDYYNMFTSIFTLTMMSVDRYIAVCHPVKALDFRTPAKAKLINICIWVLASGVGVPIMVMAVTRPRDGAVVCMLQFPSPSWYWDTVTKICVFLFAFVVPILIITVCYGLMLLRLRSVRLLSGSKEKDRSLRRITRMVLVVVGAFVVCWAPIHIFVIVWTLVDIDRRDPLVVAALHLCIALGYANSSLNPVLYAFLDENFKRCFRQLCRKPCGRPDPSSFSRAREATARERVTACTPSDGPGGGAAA

Target: Delta-type opioid receptor (Homo sapiens, UniProt P41143)
Assay: Displacement of [3H]pCl-DPDPE from human delta opioid receptor expressed in CHO cell membranes incubated for 60 mins by liquid scintillation counting

For `CN(C(=O)Cc1ccccc1)[C@H]1C[C@@]2(CCCO2)CC[C@@H]1N1CCCC1`, the Ki was > 10 µM.
